Screening results (PubChem)
PglD inh: inhibitors of Campylobacter jejuni PglD acetyltransferase; purified PglD enzyme, DTNB colorimetric CoA detection; hit rate 0.098% among 360,000; AID 602405; inhibition, % at 12.5 µM; in the data active = inhibition above about 16%, passing the limit was not always enough
PDI inh: PDI (human) enzyme inhibition; PDI insulin aggregation turbidity, A650, 90 min; inhibition, % at 10 µM; hit rate 0.052% among 350,000;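 active = mean inhibition across replicates of 30% or more, whatever share of single replicates reach that level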
ARNT TACC3 PPI: ARNT/TACC3 interaction disruption; Q9Y6A5; AlphaScreen His-ARNT PAS-B/GST-TACC3 binding, luminescence; TACC3 fragment carries E629A point mutation; inhibition, % at 9.99 µM; hit rate 0.66% among 390,000; AID 623870;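 active = mean inhibition of replicates at least 50% and at least half of replicates each reaching 50%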
FGF22 binding-1: binders of recombinant human FGF22 by thermal shift; Q9HCT0; SYPRO orange fluorescence; percent of sucrose octasulfate shift, DMSO zero; activity (Tm shift, normalised), % at 9.99 µM; hit rate 1.5% among 340,000; AID 651658;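 active = mean Tm shift, scaled 0 neutral to 100 positive control, at about 1.3% or above, every replicate too, limit read from the data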
ERp5 block: inhibitors of human ERp5 | Q15084 | ERp5 insulin aggregation, absorbance 650 nm, 90 min | inhibition, % at 9.99 µM | hit rate 0.05% among 350,000 | AID 651711;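 active = mean replicate inhibition above about 25%, with every replicate also reaching it, limit read from the data, passing the limit was not always enough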
UUG fidelity: modulators of yeast start codon fidelity, primary screen, whole organism, S. cerevisiae, single point, plate reader; S. cerevisiae UUG-firefly luciferase reporter, luminescence/redox ratio; activity score, % at 18.7 µM; 0.13% of 350,000 active; AID 602363, 2012;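 active = replicate mean at a twofold rise or more, about +100% in these data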;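 also: firefly luciferase made from a UUG start codon reports start codon fidelity; reporter light over untreated wells divided by growth signal over untreated wells; some hits fall short of that in this replicate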
FGF22 binding-2: binds human FGF22 shifting its melting temperature; shares compounds with FGF22 binding-1; recombinant FGF22 thermal shift, SYPRO orange fluorescence; thermal shift activity, °C (ΔTm) at 38 µM; hit rate 2% among 1,000;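 active = fitted rise in melting shift crosses a set limit at or below the top valid dose tested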
SYPRO no-protein: counter-screen for FGF22 binders: compound-only thermal shift, no protein. shares compounds with FGF22 binding-1. compound-only SYPRO orange thermal shift counter-screen. AC50, µM (doses to about 38 µM). hit rate 2% among 1,000. AID 743019;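 active = rising signal whose fitted curve reaches the 0.54 level within the top valid dose, showing a melting point, actives reach about 13 µM in these data; inactive = the rest, including activity in the opposite direction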; note: value is where the raw curve crosses a fixed level and not half-maximal
Of the large screens only hits and unclear results are named; the others gave an inactive call (follow-up assays come after a bar, where they were run). A selection: hits, their analogues and other compounds. The true share with any hit is near 1.9%.

O=C(CN(Cc1ccccc1)S(=O)(=O)c1ccccc1)N/N=C/c1ccccc1C(=O)O	FGF22 binding-1 2.3 | FGF22 binding-2 inactive | SYPRO no-protein inactive
O=C(C1CC1)N1CC2(C1)[C@H](c1ccccc1)[C@@H](CO)N2Cc1ccc(Cl)cc1	FGF22 binding-1 2.9 (no result: PglD inh, PDI inh, ARNT TACC3 PPI, UUG fidelity) | FGF22 binding-2 inactive | SYPRO no-protein inactive
O=C(Nc1ccccc1)O/N=C/c1ccc(F)cc1	FGF22 binding-1 1.4 | FGF22 binding-2 inactive | SYPRO no-protein inactive
CO[C@@H]1CN(C)C(=O)c2ccc(NS(=O)(=O)c3ccc(Oc4ccccc4)cc3)cc2OC[C@H](C)NC[C@@H]1C	FGF22 binding-1 1.2 (no result: PDI inh, UUG fidelity) | FGF22 binding-2 inactive | SYPRO no-protein inactive
CO[C@H]1CN(C)C(=O)c2ccc(NS(=O)(=O)c3ccc(Oc4ccccc4)cc3)cc2OC[C@H](C)NC[C@H]1C	none (no result: PDI inh, UUG fidelity)
CO[C@@H]1CN(C)C(=O)c2ccc(NS(=O)(=O)c3ccc(F)cc3)cc2OC[C@@H](C)N(C)C[C@H]1C	FGF22 binding-1 205.8 (no result: PDI inh, UUG fidelity) | FGF22 binding-2 inactive | SYPRO no-protein inactive
O=C(O)c1[nH]c2ccc(Br)cc2c1CCN1C(=O)c2cccc([N+](=O)[O-])c2C1=O	FGF22 binding-1 3.0 (no result: PglD inh, UUG fidelity) | SYPRO no-protein inactive
C[C@H](CO)N1C[C@H](C)[C@H](CN(C)C(=O)c2cccc(F)c2)Oc2cc(-c3cccnc3)ccc2S1(=O)=O	none (no result: PDI inh)
CC(C)(C)S(=O)(=O)/C(C#N)=N/Nc1ccc(Cl)cc1	FGF22 binding-1 1.7 (no result: PglD inh, UUG fidelity) | FGF22 binding-2 inactive | SYPRO no-protein inactive
CC(C)(C)c1ccc(N/N=C(\C#N)S(=O)(=O)C(C)(C)C)cc1	none (no result: PglD inh, UUG fidelity)
Cn1cccc1/C=N/NC(=O)Cc1cccc2ccccc12	FGF22 binding-1 2.1 (no result: PglD inh, UUG fidelity) | FGF22 binding-2 inactive | SYPRO no-protein inactive
CC=Cc1ccc2n(c1=O)C[C@H]1[C@H](CO)[C@@H](C(=O)N(C)C)N(CC3CCOCC3)[C@@H]21 (mixture of isomers)	none (no result: PDI inh, UUG fidelity)
O=C(O)CCN(Cc1ccccc1)S(=O)(=O)c1ccccc1Cl	FGF22 binding-1 2.9 (no result: PglD inh, UUG fidelity) | FGF22 binding-2 inactive | SYPRO no-protein inactive
Clc1ccc(-c2cnc3ccccc3n2)cc1	none (no result: PglD inh, FGF22 binding-1, ERp5 block, UUG fidelity)
Oc1ccc(-c2cnc3ccccc3n2)cc1	FGF22 binding-1 25.3 (no result: PglD inh, UUG fidelity) | FGF22 binding-2 inactive | SYPRO no-protein inactive
COc1ccccc1N(C)S(=O)(=O)c1ccc(C(=O)Nc2ccc(C(N)=O)cc2)cc1	FGF22 binding-1 1.7 (no result: ERp5 block) | FGF22 binding-2 inactive | SYPRO no-protein inactive
COc1ccc(S(=O)(=O)N[C@@H]2C=C[C@H](CC(=O)NCCc3ccccc3)O[C@@H]2CO)cc1	FGF22 binding-1 1.4 (no result: PDI inh) | FGF22 binding-2 inactive | SYPRO no-protein inactive
Cc1ccc(S(=O)(=O)N[C@H]2C=C[C@@H](CC(=O)NCc3ccc(Cl)c(Cl)c3)O[C@H]2CO)cc1	FGF22 binding-1 1.3 (no result: PDI inh, ARNT TACC3 PPI) | FGF22 binding-2 inactive | SYPRO no-protein inactive
Cc1ccc(S(=O)(=O)N[C@@H]2C=C[C@H](CC(=O)NCc3ccc(Cl)c(Cl)c3)O[C@@H]2CO)cc1	none (no result: PglD inh, PDI inh, ARNT TACC3 PPI, ERp5 block, UUG fidelity)
COc1ccc(S(=O)(=O)N[C@H]2C=C[C@@H](CC(=O)NCCc3ccccc3)O[C@@H]2CO)cc1	none (no result: PDI inh)
O=C(O)C[C@@H]1CC[C@@H]2[C@H](COC[C@@H](O)CN2S(=O)(=O)c2ccc(F)cc2)O1	none (no result: PDI inh, UUG fidelity)
CC1CC(CC(=O)NC(=S)Nc2ccccc2Cl)C(=O)O1 (centres undefined)	FGF22 binding-1 1.6 | FGF22 binding-2 inactive | SYPRO no-protein inactive
O=[N+]([O-])c1ccc(CS(=O)(=O)c2ccc(Cl)cc2)cc1	none
O=[N+]([O-])c1cc(CS(=O)(=O)Oc2ccc(Cl)cc2)c(O)c([N+](=O)[O-])c1	FGF22 binding-1 1.4 (no result: PglD inh, UUG fidelity) | FGF22 binding-2 inactive | SYPRO no-protein inactive
COc1cc(-c2nc(C)c(C(C)=O)n2O)ccc1OCC(=O)Nc1ccc(Cl)cc1	FGF22 binding-1 2.5 (no result: PglD inh, UUG fidelity) | FGF22 binding-2 inactive | SYPRO no-protein inactive
COc1ccc(-c2nc(C)c(C(C)=O)n2O)cc1OC	none (no result: FGF22 binding-1, ERp5 block)
CC(=O)c1c(C)nc(-c2ccc(OCC(=O)Nc3cccc(C)c3C)cc2)n1O	FGF22 binding-1 2.2 | FGF22 binding-2 inactive | SYPRO no-protein inactive
C[C@H]1CCCCO[C@@H](CN(C)Cc2ccc(C(=O)O)cc2)[C@@H](C)CN([C@@H](C)CO)C(=O)c2cc(NC(=O)NC3CCCCC3)ccc2O1	none (no result: PDI inh)
C[C@@H](NC(=O)C[C@@H]1CC[C@H](NC(=O)Nc2ccc3c(c2)OCO3)[C@H](CO)O1)c1ccccc1	none (no result: PDI inh)
O=C(Cc1ccccc1)N/N=C/C=C/c1cccc([N+](=O)[O-])c1	none (no result: ARNT TACC3 PPI, FGF22 binding-1, ERp5 block)
Cc1ccccc1NCC(=O)N/N=C\C=C\c1cccc([N+](=O)[O-])c1	FGF22 binding-1 1.5 (no result: PglD inh, UUG fidelity) | FGF22 binding-2 inactive | SYPRO no-protein inactive
Cc1ccc(-c2n[nH]c(=S)n2/N=C/c2c(C)[nH]n(-c3ccccc3)c2=O)cc1	FGF22 binding-1 2.7 | FGF22 binding-2 inactive | SYPRO no-protein inactive
C[C@H](CO)N1C[C@H](C)[C@H](CN(C)C(=O)Nc2ccc3c(c2)OCO3)Oc2cc(C3=CCCC3)ccc2S1(=O)=O	FGF22 binding-1 1.8 (no result: PDI inh) | FGF22 binding-2 inactive | SYPRO no-protein inactive
C[C@@H]1CN([C@H](C)CO)S(=O)(=O)c2ccc(C3=CCCC3)cc2O[C@@H]1CN(C)C(=O)Nc1ccc2c(c1)OCO2	FGF22 binding-1 1.2 (no result: PDI inh) | FGF22 binding-2 inactive | SYPRO no-protein inactive
C[C@H]1CN([C@@H](C)CO)S(=O)(=O)c2ccc(C3=CCCC3)cc2O[C@@H]1CN(C)C(=O)Nc1ccc2c(c1)OCO2	none (no result: PDI inh)
O=C(C[C@@H]1CC[C@@H]2[C@H](COC[C@@H](O)CN2S(=O)(=O)c2ccc(F)cc2)O1)N[C@H]1CCN(Cc2ccccc2)C1	none (no result: PDI inh, FGF22 binding-1)
CN(C)CC(=O)Nc1ccc2c(c1)[C@H]1C[C@@H](CC(=O)NCc3ccc4c(c3)OCO4)O[C@H](CO)[C@H]1O2	none (no result: PDI inh, ARNT TACC3 PPI, FGF22 binding-1, ERp5 block)
C[C@@H]1CN([C@@H](C)CO)C(=O)c2cc(NC(=O)Cn3cnnn3)ccc2O[C@@H]1CN(C)Cc1ccncc1	none (no result: PDI inh)
Cc1ccc(NC(=O)COC(=O)Cn2cnc3c2c(=O)n(C)c(=O)n3C)cc1F	FGF22 binding-1 30.1 | FGF22 binding-2 inactive | SYPRO no-protein inactive
Cc1ccc(NC(=O)COC(=O)Cn2cnc3c2c(=O)n(C)c(=O)n3C)cc1Cl	none
O=C(N/N=C/c1c[nH]c2ccc(Br)cc12)c1ccc2c(c1)OCO2	FGF22 binding-1 2.5 (no result: PglD inh, UUG fidelity) | FGF22 binding-2 inactive | SYPRO no-protein inactive
O=C(N/N=C/c1c[nH]c2ccc(Br)cc12)c1ccncc1	none (no result: PglD inh, FGF22 binding-1, ERp5 block, UUG fidelity)
O=C(N/N=C/c1c[nH]c2ccc(Br)cc12)C1CC1	FGF22 binding-1 2.2 (no result: PglD inh, UUG fidelity) | FGF22 binding-2 inactive | SYPRO no-protein inactive
NC(=O)C(=O)N/N=C/c1c[nH]c2ccc(Br)cc12	none (no result: PglD inh, UUG fidelity)
